Some of the results follow. These assays gave more results; the selection is not random. Active and inactive are the calls of the source. The calls are words filed in the database; no cut-off is given here.

The assay has as its target Guanine nucleotide-binding protein G(s) subunit alpha isoforms short (Homo sapiens) (UniProt P63092). The experiment in a line: qHTS for Agonist of gsp, the Etiologic Mutation Responsible for Fibrous Dysplasia/McCune-Albright Syndrome: qHTS. In kind it is functional. In general terms: In qHTS, concentration-response curves come from the screen itself.
`CC[n+]1c(/C=C/N(C)c2ccccc2)oc2ccc(Cl)cc21`: the Potency entry is “inactive”.

The record behind these values is ChEMBL document CHEMBL1201862, “PubChem BioAssay data set” (2004).
